According to PMC4515095, “Structures of the Apo and FAD-Bound Forms of 2-Hydroxybiphenyl 3-monooxygenase (HbpA) Locate Activity Hotspots Identified by Using Directed Evolution” (Chembiochem, 2015):

Test system: Oc1ccccc1-c1ccccc1
Experiment: purified protein
Conditions: co-substrate NADH, air-saturated buffer

## HbpA; 2-hydroxybiphenyl 3-monooxygenase (Pseudomonas nitroreducens; D117A)
  Km: 5.0 ± 0.8 µM

## HbpA; 2-hydroxybiphenyl 3-monooxygenase (Pseudomonas nitroreducens; H48A)
NADH oxidation read-out, hydroxylation is uncoupled
  Km: 3.1 ± 0.4 µM

## HbpA; 2-hydroxybiphenyl 3-monooxygenase (Pseudomonas nitroreducens; R242A)
NADH oxidation read-out
  Km: 4.8 ± 1.6 µM
